Experimental data published in ChEMBL document CHEMBL1136263, “Synthesis of non-competitive inhibitors of sphingomyelinases with significant activity” (Bioorg Med Chem Lett, 2003).

Assays:
[1] = tested on: Sphingomyelinase (Bacillus cereus); assay: Effect on neutral sphingomyelinase (N-SMase) from Bacillus cereus at IC50 concentration; No effect
[2] = tested on: Sphingomyelinase (Bacillus cereus); assay: as above; remark: listed apart in the source

- IC50 [1]: Not Active
- Ki [2]: Not Active
Structure (SMILES): CCCCCCCCCCCCCCCC(=O)N[C@@H](CC(F)(F)P(=O)(O)O)[C@H](O)c1ccccc1
